Assay: Excretion into urine after oral administration
Conditions: rabbit, in vivo

SMILES: COC(=O)[C@H]1[C@H]2C[C@@H]3c4[nH]c5cc(OC)ccc5c4CCN3C[C@H]2C[C@@H](O)[C@@H]1OC [MR, methylreserpate]
- main route of excretion: discharge into urine
